Only a part is listed here, and it is no random draw. Active and inactive are the calls of the source.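 How the source made its calls: active means activation over 3 SD above normal in the single-dose calcium agonist read (cut at about 30% in these data); inactive means the rest.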

By UniProt entry, the sequences of proteins in these tests, tags left out.
UniProt P14416, whole entry, looked up: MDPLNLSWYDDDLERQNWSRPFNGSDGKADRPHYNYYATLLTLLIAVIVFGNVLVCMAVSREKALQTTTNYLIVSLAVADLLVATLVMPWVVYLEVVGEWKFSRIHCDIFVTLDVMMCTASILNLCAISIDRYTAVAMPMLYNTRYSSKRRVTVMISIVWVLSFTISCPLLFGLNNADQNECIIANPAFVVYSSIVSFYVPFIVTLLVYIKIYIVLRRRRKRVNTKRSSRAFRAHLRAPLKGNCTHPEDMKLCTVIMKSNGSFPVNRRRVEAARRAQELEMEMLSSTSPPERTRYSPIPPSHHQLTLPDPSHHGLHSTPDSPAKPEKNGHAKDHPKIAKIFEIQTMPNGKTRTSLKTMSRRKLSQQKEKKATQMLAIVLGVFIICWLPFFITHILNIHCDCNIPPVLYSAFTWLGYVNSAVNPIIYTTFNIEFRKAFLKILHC

The assay deals with D(2) dopamine receptor (Homo sapiens) (UniProt P14416). Briefly: HTS Assay for Allosteric Agonists of the Human D2 Dopamine Receptor: Primary Screen for Agonists. Further: 0% is about no effect. Conditions: HEK293 T-REx D2 cells, calcium flux agonist mode; at 2 µM; hits give high values. The text has this:
NIH Chemical Genomics Center [NCGC] NIH Molecular Libraries Probe Centers Network [MLPCN] MLPCN Grant: NS064831-01 Assay Submitter (PI): David Sibley Dopamine receptors (DARs) are involved in the etiology and/or therapy of a number of neuropsychiatric and endocrine disorders. For instance, all receptor-based antiparkinsonian drugs work via stimulating the D2 DAR subtype whereas all FDA-approved antipsychotic agents are antagonists of this receptor. […] There are three different types of allosteric modulators that we are seeking, two of which will stimulate or augment receptor signaling, allosteric agonists and potentiators, while the third, allosteric antagonists, will attenuate receptor signaling. The present primary screening assay measures compound agonism by tracking calcium flux in a […], inducible Hek293 Trex D2 cell line.
Freshly passaged cells are plated in 1536 well black, clear bottom plates at a density of 4000 cells/well in 3 ul of complete media containing 1x tetracycline inducer. After an overnight incubation at […] in 5% CO2, cells are loaded with 2 ul of the no wash Calcium Assay Kit (ABD Bioquest) and incubated at room temperature for 30 to 90 minutes. Agonist read: A 10 cycle (1 second/cycle) baseline measurement is taken and then the FDSS online 1536 pintool delivers 23 nl of compound library (as well as dopamine controls) to the plate. The plate is measured for kinetically at 1 cycle/sec for 180 seconds and is considered to be the agonist portion of the assay (eg, compounds which activate a positive calcium response during this portion are flagged as potential agonists). Following the 180 second read, 1 ul of either an EC20 (positive modulation assay) or EC80 (negative modulation assay) is delivered by an onboard pipette head. Measurements are taken kinetically for an additional 180 seconds.
As to `Cc1ccc(NP(=O)(Oc2ccccc2F)Oc2ccccc2F)nc1`, the activation was inactive: -0.42%.

For `Cc1cc(SC(NC(=O)c2ccc(F)cc2)C(Cl)(Cl)Cl)ncn1` (centres undefined), the activation was inactive: -0.127%.

For the molecule `CCOP(=O)(Nc1ccccc1)OCC`, the activation was inactive: 0.0349%.

`CC(=O)Nc1ccc([As](=O)(O)O)cc1`: the activation is inactive: 1.01%.

For `O=C(O)c1ccccc1[As](=O)(O)O`, the activation was inactive: -3.32%.

Take `O=P(Nc1nc2ccc(Cl)cc2s1)(c1ccccc1)c1ccccc1`: the activation is inactive: -1.85%.

Consider `CCN(N=Nc1nonc1N)c1nonc1N`, for which the activation is inactive: 0.207%.

With `Nc1cccc2ccc([As](=O)(O)O)cc12`, the activation is inactive: -0.486%.

Consider `O=[N+]([O-])c1cc([N+](=O)[O-])c(CCN2CCOCC2)c([N+](=O)[O-])c1`, for which the activation is inactive: 0.486%.

For `Cc1ccc(OP(=O)(Nc2nccs2)Oc2ccc(C)cc2)cc1`, the activation was inactive: -0.121%.

`COc1ccccc1OP(=O)(Nc1ccc(C)cn1)Oc1ccccc1OC`: the activation was inactive: 0.267%.

Regarding `CN1CCCC(OC(=O)C(c2ccccc2)c2ccccc2)C1` (centres undefined), the activation is inactive: 0.973%.

Regarding `Clc1ccc(Cl)c(NC2=NCC(CBr)S2)c1` (centres undefined), the activation is inactive: -1.01%.

As to `NC(=O)c1cc([N+](=O)[O-])cc([N+](=O)[O-])c1N`, the activation is inactive: -0.513%.

`Cc1ccc(N/C(=N/P(=O)(N2CCOCC2)N2CCOCC2)N2CCOCC2)cc1`: the activation was inactive: 0.188%.

For `CN(C(=O)Cc1ccc(Cl)c(Cl)c1)[C@H]1CCCC[C@H]1N1CCCC1`, the activation is inactive: 0.954%.

On to `Nc1cc(N)c2nonc2c1[N+](=O)[O-]`, for which the activation is inactive: -0.551%.

Regarding `O=C(NC(Sc1ccncn1)C(Cl)(Cl)Cl)c1ccccc1` (centres undefined), the activation was inactive: 0.435%.

On to `Cc1c2non([O-])c-2c(C)[n+](=O)[n+]1[O-]`, for which the activation is inactive: 0.45%.

As for `Oc1ccccc1CNc1ccccn1`, the activation was inactive: 0.85%.

For the molecule `CC(=O)N1C2C3N(C(C)=O)C1C1N(C(C)=O)C(C(N1C(C)=O)N3C(C)=O)N2C(C)=O`, the activation was inactive: -0.651%.

In the case of `O=[N+]([O-])c1cccc2n[nH]nc12`, the activation was inactive: 0.0657%.

As for `O=[N+]([O-])c1cc([N+](=O)[O-])c(CCNc2ccccc2)c([N+](=O)[O-])c1`, the activation is inactive: -0.725%.

As for `CCc1nc2c(n1)c1c(non1O)c1c2no[n+]1[O-]`, the activation is inactive: -0.0797%.

Turning to `Cc1ccc(NP(=O)(Oc2ccccc2)Oc2ccccc2)nc1`, the activation is inactive: -0.472%.

For the molecule `COc1ccc(C2=NCC(CBr)S2)cc1` (centres undefined), the activation is inactive: -0.451%.

Regarding `CN(C)C(=O)OCCc1n(C)cc[n+]1C`, the activation is inactive: -2.29%.

For the molecule `CC(C)=N/N=C(\N)N[N+](=O)[O-]`, the activation is inactive: -0.976%.

Turning to `CC1CCN(C(=O)Oc2c(Cl)cc(Cl)c3cccnc23)CC1`, the activation is inactive: 0.83%.

As to `C[N+]1=C2C=CC=CC=C2SC12C([N+](=O)[O-])=CC([N+](=O)[O-])=C[C-]2[N+](=O)[O-]` (centres undefined), the activation was inactive: 8.31%.

Consider `Nc1ccc([As](=O)(O)c2ccc(N)cc2)cc1`, for which the activation was inactive: 0.691%.

For the molecule `CCN(/C(=N/P(=O)(N1CCOCC1)N1CCOCC1)N1CCOCC1)c1ccc(OC)cc1`, the activation was inactive: 0.0616%.

Regarding `O=C(Nc1cc([As](=O)(O)O)ccc1O)c1ccccc1`, the activation is inactive: -1.46%.

Turning to `O=[N+]([O-])c1cccc(NC2=NCC(CBr)S2)c1` (centres undefined), the activation is inactive: 0.234%.

Take `O=C(O)CNc1ccc([As](=O)(O)O)cc1`: the activation is inactive: 0.222%.

With `CC(C)(C)C(=O)NC(Sc1ccncn1)C(Cl)(Cl)Cl` (centres undefined), the activation was inactive: 0.91%.

Take `O=[N+]([O-])c1ncn(CCn2ncnc2[N+](=O)[O-])n1`: the activation is inactive: 0.65%.

As for `O=P(Nc1nc2ccccc2s1)(c1ccccc1)c1ccccc1`, the activation was inactive: 0.6%.

For `CN(C)C1(CNC(=O)c2ccc(Cl)c(S(N)(=O)=O)c2)CCCCC1`, the activation was inactive: 0.321%.

Regarding `O=P(Nc1ccccn1)(c1ccc(Br)cc1)c1ccc(Br)cc1`, the activation was inactive: 0.75%.

`C(Cc1nn[nH]n1)Cc1nn[nH]n1`: the activation is inactive: -0.311%.

Regarding `Nc1ccc([As](=O)(O)c2ccc([N+](=O)[O-])cc2)cc1`, the activation is inactive: 0.203%.

Take `O=C(OC1CN2CCC1CC2)c1cccc(Cl)c1` (centres undefined): the activation was inactive: -0.106%.

As to `O=[N+]([O-])c1ncn(CCn2cnc([N+](=O)[O-])n2)n1`, the activation was inactive: 0.532%.

Turning to `CC(=O)NC(SC(=S)N(C)C)C(Cl)(Cl)Cl` (centres undefined), the activation was inactive: 1.24%.

On to `O=[N+]([O-])c1ccc(O)c(/C=N/Nc2ccc([N+](=O)[O-])cc2[N+](=O)[O-])c1`, for which the activation is inactive: 1.42%.

For the molecule `c1nnnn1CCn1cnnn1`, the activation was inactive: 0.226%.

Take `O=P(Nc1nccs1)(c1ccccc1)c1ccccc1`: the activation is inactive: 0.193%.

`CC(C)C(=O)NC(Sc1ccccc1)C(Cl)(Cl)Cl` (centres undefined): the activation was inactive: -0.666%.

As for `CC(C)(C)C(=O)NC(Sc1ccccc1)C(Cl)(Cl)Cl` (centres undefined), the activation is inactive: -0.961%.

For the molecule `CCOc1ccc(C2=NCC(CBr)S2)cc1` (centres undefined), the activation was inactive: 0.933%.

As for `O=P1(Nc2nc3ccc(Cl)cc3s2)COc2ccccc2O1` (centres undefined), the activation was inactive: -0.102%.

Turning to `CC(=O)Nc1ccc(Oc2c([N+](=O)[O-])cc([N+](=O)[O-])cc2[N+](=O)[O-])cc1`, the activation is inactive: -0.0645%.

Turning to `CC(=O)Nc1ccc([As](=O)(O)O)c(O)c1`, the activation was inactive: 0.803%.

Turning to `CC(=O)c1ccc(N2CC2c2ccncc2)cc1` (centres undefined), the activation was inactive: 0.322%.

With `C[C@H]1OP(=O)(Oc2ccccc2)C[C@@H]2O[C@@H]21` (some centres undefined), the activation is inactive: -0.334%.

Consider `C[C@@H]1C=CCP(=O)(Oc2ccccc2)O1` (some centres undefined), for which the activation is inactive: 0.554%.

On to `O=C(NC1CCS(=O)(=O)C1)NP(=S)(Oc1ccccc1)Oc1ccccc1` (centres undefined), for which the activation is inactive: -0.0824%.

On to `CCOC(=O)NC(Sc1ccccc1)C(Cl)(Cl)Cl` (centres undefined), for which the activation was inactive: -0.254%.

Take `Cc1ccc(NP(=O)(Oc2cccc(C)c2)Oc2cccc(C)c2)nc1`: the activation is inactive: 0.136%.

As to `c1ccc(-c2nn[nH]n2)c(-c2nn[nH]n2)c1`, the activation was inactive: 0.424%.

On to `O=c1c2cc([N+](=O)[O-])ccc2[nH]c2c([N+](=O)[O-])cc([N+](=O)[O-])cc12`, for which the activation was inactive: 25.2%.

Consider `CN(C)C(=O)Oc1noc2ccccc12`, for which the activation is inactive: 0.191%.

With `Cc1ccccc1OP(=O)(Nc1ccccn1)Oc1ccccc1C`, the activation is inactive: -0.948%.

For the origin of these results see PubChem BioAssay AID485358 (National Center for Advancing Translational Sciences (NCATS), 2010).
